Target: human SSTR4 (Homo sapiens, UniProt P31391)
Test: hSSTR4 cAMP assay (cAMP accumulation, LANCE Ultra cAMP kit, CHO-K1 human SSTR4 Gi cell line)
Format: cell-based
Settings: read-out: hSSTR4 EC50 nM (Comparative Example); morpholinyl matched molecular pairs (from WO 2016 075240); same cAMP assay conditions

By UniProt entry, the sequences of proteins in these tests, tags left out.
UniProt P31391, whole entry: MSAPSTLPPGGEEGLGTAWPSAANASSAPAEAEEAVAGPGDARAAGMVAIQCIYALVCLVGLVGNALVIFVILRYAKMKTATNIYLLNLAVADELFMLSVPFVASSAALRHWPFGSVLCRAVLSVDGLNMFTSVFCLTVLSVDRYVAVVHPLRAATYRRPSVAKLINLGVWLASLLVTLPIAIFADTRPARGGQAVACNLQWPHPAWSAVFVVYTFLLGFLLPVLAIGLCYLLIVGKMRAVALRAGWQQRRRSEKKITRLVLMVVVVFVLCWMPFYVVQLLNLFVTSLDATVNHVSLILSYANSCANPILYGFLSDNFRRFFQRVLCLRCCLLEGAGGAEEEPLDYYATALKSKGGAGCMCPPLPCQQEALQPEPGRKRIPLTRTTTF

| Structure (SMILES) | EC50 [nM] |
| --- | --- |
| CC(C)(NC(=O)C1CNCCO1)c1n[nH]c2c(F)cccc12 (centres unmarked) | 34 |
| Cc1cccn2c(C(C)(C)NC(=O)C3CNCCO3)ncc12 (centres unmarked) | 12 |
| Cc1cccc2c(C(C)(C)NC(=O)C3CNCCO3)nn(C)c12 (centres unmarked) | 15 |
| Cc1cccc2c(C(C)(C)NC(=O)C3CNCCO3)n[nH]c12 (centres unmarked) | 1.3 |
| COc1cccn2c(C(C)(C)NC(=O)C3CNCCO3)ncc12 (centres unmarked) | 107 |

Reference: patent publication US20250368625A1, “PIPERAZINES” (Grünenthal GmbH, priority 2024, published 2025)
